Results as given in US6699901B1, “Dicarboxylato diammine platinum derivatives and compositions comprising them as anti-tumor agents” (priority 2000, dated 2004).
Read-outs that look alike come from different tables or passages of the source.

Assays:
[1] = Solubility in water; type: physicochemical
[2] = test system: epidermal cells; details: within a certain range of doses
[3] = test system: human normal fibrous cells; details: within a certain range of doses
[4] = rabbits intravenous, mice oral
[5] = test system: cancer; experiment: Typical cases treated by oral capsules and injections; type: in vivo, human
Protocol: 1. The oral capsules were composed of bicycloplatin and adjuvant. The patients took the oral capsules containing 20-30 mg of bicycloplatin.
2. Injections of bicycloplatin water solution at the concentration of 1% in 5 ml per ampoule. Bicycloplatin water solution was dissolved in 100 ml injection containing 5% of glucose and 0.9% of sodium chloride and injected intravenously once every two days, two ampoules every time. 100 ml of sodium chloride injection should be transfused after the dripping of bicycloplatin. A course of treatment took 6 times (12 ampoules). The second course of treatment began after an interval of two weeks. After three consecutive courses of treatment, general examination was taken.

[6] = test system: nude mice; experiment: Acute toxicity dose limiting experiments (LD50)
Protocol: The LD50 of the pharmaceutical composition of the invention is tested as follows, for example: […]

[7] = Stability in water; type: physicochemical; details: after dissolved in water
[8] = for content of platinum in serum: 100 mg iv

double 1,1-cyclobutane dicarboxylic acid diaminoplatin complex [bicycloplatin]
Solubility in water [1]: 4.0 g/100 ml
injury to human normal epidermal cells [2]: no injury occurred
injury to human normal fibrous cells [3]: no injury occurred
time at which concentration dropped to zero in blood [4]: 24 h
side effects ([5]; Patient Li): periodic fever lasting about 10 hours
hemogram ([5]; Patient Li, 3rd course of treatment): Changes were little in hemogram
hemogram ([5]; Patient Ma, after five courses of treatment): Changes were little in hemogram
hemoglobin ([5]; Patient Xu, at discharge): 8.0 g
number of WBC ([5]; Patient Xu, at discharge): 3000
LD50 abdominal administration ([6]; administered abdominally): 283 mg/kg
LD50 intravenous ([6]; administered intravenously): 50.46 ± 0.93 mg/kg
LD50 oral administration ([6]; taken orally): 500 mg/kg
stability in water [7]: can be stored effective for a long period
content of platinum in serum ([8]; Rabbit 1 (3.25 kg), 0 hr): 34.6 µg/mL
content of platinum in serum ([8]; Rabbit 1 (3.25 kg), 0.5 hr): 20.5 µg/mL
content of platinum in serum ([8]; Rabbit 1 (3.25 kg), 1 hr): 10.4 µg/mL
content of platinum in serum ([8]; Rabbit 1 (3.25 kg), 2 hr): 6.2 µg/mL
content of platinum in serum ([8]; Rabbit 1 (3.25 kg), 4 hr): 2.4 µg/mL
content of platinum in serum ([8]; Rabbit 1 (3.25 kg), 6 hr): 1.9 µg/mL
content of platinum in serum ([8]; Rabbit 1 (3.25 kg), 8 hr): 1.7 µg/mL
content of platinum in serum ([8]; Rabbit 1 (3.25 kg), 10 hr): 1.6 µg/mL
content of platinum in serum ([8]; Rabbit 1 (3.25 kg), 12 hr): 0.9 µg/mL
content of platinum in serum ([8]; Rabbit 1 (3.25 kg), 24 hr): 0 µg/mL
content of platinum in serum ([8]; Rabbit 2 (3.5 kg), 0 hr): 58.0 µg/mL
content of platinum in serum ([8]; Rabbit 2 (3.5 kg), 0.5 hr): 21.8 µg/mL
content of platinum in serum ([8]; Rabbit 2 (3.5 kg), 1 hr): 20.3 µg/mL
content of platinum in serum ([8]; Rabbit 2 (3.5 kg), 2 hr): 10.8 µg/mL
content of platinum in serum ([8]; Rabbit 2 (3.5 kg), 4 hr): 4.2 µg/mL
content of platinum in serum ([8]; Rabbit 2 (3.5 kg), 6 hr): 2.8 µg/mL
content of platinum in serum ([8]; Rabbit 2 (3.5 kg), 8 hr): 2.3 µg/mL
content of platinum in serum ([8]; Rabbit 2 (3.5 kg), 10 hr): 2.1 µg/mL
content of platinum in serum ([8]; Rabbit 2 (3.5 kg), 12 hr): 2.2 µg/mL
content of platinum in serum ([8]; Rabbit 2 (3.5 kg), 24 hr): 0 µg/mL
time at which concentration dropped to zero ([8]; rabbits, 100 mg intravenously): 24 h
